Data taken from US5866397A, “Human protein tyrosine phosphatase OB protein” (Merck & Co., Inc., priority 1997, dated 1999).

How the values were obtained:
[1] = test system: mononucleated TRAP positive cells; experiment: Formation of mononucleated TRAP positive cells in the co-culture; type: cell-based, mouse; details: orthovanadate 10 μM or phenylarsine oxide 0.2 μM
bone cells / osteoblasts = details: literature (Lau et al.), cited from earlier work

Molecule | formation of mononucleated TRAP positive cells [1] | synthesis of bone collagen (bone cells / osteoblasts) | synthesis of bone collagen (bone cells / osteoblasts; listed as vanadate)
O=[As]c1ccccc1 (stereo not drawn) | produced mononucleated TRAP positive cells | – | –
orthovanadate | – | stimulation of cell proliferation and the synthesis of bone collagen | stimulated cell proliferation and the synthesis of bone collagen

Where two headings read alike, the source gives them in different places.
